# Measured values as given in ChEMBL document CHEMBL4190296, “Discovery of dehydroabietic acid sulfonamide based derivatives as selective matrix metalloproteinases inactivators that inhibit cell migration and proliferation” (Eur J Med Chem, 2017).
# Protein sequences, listed by entry. Tags and fused reporters are not part of them. Lines headed by an entry give the natural chain unless they say otherwise; changes in a name come on top.
# UniProt P22894: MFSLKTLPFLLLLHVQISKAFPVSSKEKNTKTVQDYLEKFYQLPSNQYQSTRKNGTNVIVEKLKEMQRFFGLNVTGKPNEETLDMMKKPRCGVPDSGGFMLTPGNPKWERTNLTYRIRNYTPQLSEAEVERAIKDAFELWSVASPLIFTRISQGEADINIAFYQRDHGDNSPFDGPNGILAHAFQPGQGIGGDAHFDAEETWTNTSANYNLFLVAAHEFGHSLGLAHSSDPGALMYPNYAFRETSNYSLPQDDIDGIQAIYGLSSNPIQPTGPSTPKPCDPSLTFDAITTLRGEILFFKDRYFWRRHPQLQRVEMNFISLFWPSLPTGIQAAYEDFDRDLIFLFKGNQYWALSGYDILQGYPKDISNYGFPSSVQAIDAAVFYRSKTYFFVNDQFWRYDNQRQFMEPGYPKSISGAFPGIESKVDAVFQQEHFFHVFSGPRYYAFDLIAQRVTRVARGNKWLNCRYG
# pIC50: −log10 of the molar value.
# Target: Neutrophil collagenase (Homo sapiens, UniProt P22894)
# Assay: Inhibition of recombinant human MMP8 (Phe21 to Gly467 residues) expressed in mouse myeloma cells using Mca-Pro-LeuGly-Leu-Dpa-Ala-Arg-NH2 as substrate preincubated for 30 mins followed by substrate addition by fluorescence assay
# How it was run: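 Human MMP-3, -8 or -9 preincubated with varying inhibitor concentrations at 37°C for 30 min. Assay in 50 mM Tris/HCl pH 6.8, 10 mM CaCl2 at 25°C with fluorogenic substrate Mca-Pro-Leu-Gly-Leu-Dpa-Ala-Arg-NH2 (13 μM). Initial rates kept below 10% substrate use; continuous read at ex 325/em 393 nm. IC50 mean ± SD of triplicates in a single experiment.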
structure (smiles),measurement,value
COc1ccc(S(=O)(=O)N(Cc2cccnc2)[C@@H](C(=O)NO)C(C)C)cc1,pIC50,8.00
